The values below come from PubChem BioAssay AID463254 (National Center for Advancing Translational Sciences (NCATS), 2010).

By UniProt entry, the sequences of proteins in these tests, tags left out.
UniProt O75604, whole entry: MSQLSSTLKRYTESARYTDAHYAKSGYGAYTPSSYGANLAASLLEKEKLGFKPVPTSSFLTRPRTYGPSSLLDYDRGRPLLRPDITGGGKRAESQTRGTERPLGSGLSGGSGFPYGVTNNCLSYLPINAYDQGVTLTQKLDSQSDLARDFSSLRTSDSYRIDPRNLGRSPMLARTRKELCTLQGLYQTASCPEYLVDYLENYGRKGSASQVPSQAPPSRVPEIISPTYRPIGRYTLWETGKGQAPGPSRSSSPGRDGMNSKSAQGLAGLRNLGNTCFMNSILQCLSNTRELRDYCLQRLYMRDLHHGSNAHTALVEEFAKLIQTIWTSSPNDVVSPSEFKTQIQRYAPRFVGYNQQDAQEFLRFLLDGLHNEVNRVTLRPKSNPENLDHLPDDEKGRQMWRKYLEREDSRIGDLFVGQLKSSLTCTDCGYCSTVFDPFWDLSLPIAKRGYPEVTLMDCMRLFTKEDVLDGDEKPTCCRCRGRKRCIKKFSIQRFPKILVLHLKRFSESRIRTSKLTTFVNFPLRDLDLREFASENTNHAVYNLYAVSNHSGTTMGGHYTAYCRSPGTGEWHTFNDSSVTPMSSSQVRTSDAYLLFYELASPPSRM

The list shows a part of the results, in another mix than the full data. The source made the active and inactive calls. Calls come from the whole dose curve; as a rule, active = well fitted inhibition curve with a large enough effect; inconclusive = small, poorly fitted or top-dose-only effect, or effect the other way; inactive = flat fitted curve, though single readings scatter.

The assay concerns the target Ubiquitin carboxyl-terminal hydrolase 2 (Homo sapiens) (UniProt O75604). Put plainly: qHTS Assay for Inhibitors of Ubiquitin-specific Protease USP2a Using CHOP2 as the Reporter. As to conditions: USP2 core, Ub-CHOP2 coupled fluorogenic reporter, 485/531; at 38.3 µM (top of the series). The source says: NIH Molecular Libraries Screening Centers Network [MLSCN] NIH Chemical Genomics Center [NCGC] MLSCN Grant: XO1-MH079852-01 PI Name: Nicholson, Ben. Progenra Inc, Malvern, PA NCGC Assay Overview: Homeostasis of cellular proteins is maintained through a combination of synthesis and degradation. The pathway that accounts for the majority of protein degradation is the ubiquitin-proteasomal pathway. Ubiquitin (Ub) is highly conserved in all cells and the generation of a multi-Ub chain typically targets proteins for degradation by the proteasome. However, ubiquitination is highly reversible and dynamic. Deubiquitination, the reverse process, is catalyzed through the action of enzymes referred to as isopeptidases or deubiquitinating enzymes (DUBs). This group of enzymes is collectively responsible for maintaining adequate pools of free ubiquitin and regulating the ubiquitination status of cellular proteins. The class of DUBs referred to as the ubiquitin-specific proteases (USP) family functions endoproteolytically to cleave Ub chains from a wide range of protein substrates. USP2a deubiquitinates fatty acid synthase (FASN) which has recently been identified as an emerging oncology target. To identify inhibitors of USP2a a cell-free assay was employed. […] The reporter enzyme chosen is an enterokinase called CHOP2, which is activated when the Ub is cleaved by USP2. The free and now activated reporter can subsequently act on its reporter substrate. Thus, this coupled assay gives a fluorescent read-out at excitation/emission wavelengths of 485/531. The assay was developed by Progenra, Inc. and has been licensed for sale by LifeSensors, Inc. as Ub-CHOP2-Reporter-Kit (#PR1101).
NCGC Assay Protocol Summary: The assay buffer, prepared fresh at the day of the assay, contains 20mM Tris-HCl pH 8.0, 2mM CaCl2, 2mM beta-Mercaptoethanol, 0.05% CHAPS. 3ul of 20nM (10nM final) USP2 core, which is stored on ice, is dispensed into a medium-binding black solid Kalypsys 1,536 well plate using the Kalypsys dispenser. The assay plate is then pinned with 23nL compound with the Kalypsys pintool in columns 5-48. The controls are pinned as follows: column 1 two-fold dilutions of 2M NEM in duplicate; column 2 2M NEM (final concentration 38.2mM); column 3&4 DMSO. The assay plate is incubated at RT for 30min. Subsequently, 1.5uL of 100nM (25nM final) Ub-CHOP2 and 1.5uL of 100nM (25nM final) Reporter Substrate (both stored on ice and protected from light) were dispensed into the plate using the Kalypsys dispenser. Plates were read after 60min RT incubation on a ViewLux (Perkin Elmer) plate reader using the following wavelengths Ex 485nm /Em 531nm. Data were normalized to the to AC100 inhibition (NEM). Concentration-response curves were fitted to the normalized data and the concentration-response curves were then classified based on curve quality (r2), response magnitude and degree of measured activity. The time zero reading was used to flag fluorescence artifacts. Keywords: ubiquitination, deubiquitination, proteases, profluorescent, MLSMR, MLPCN, NIH Roadmap, qHTS, NCGC
In the case of `COc1ccccc1OP(C)(=O)Nc1cccc(Br)c1` (stereo not given), the activity change, negative = inhibition was inactive: -1.91%. Next, `CCOC(=O)c1ccc(NP(C)(=O)Oc2cc(C)cc(C)c2)cc1` (stereo not given): inactive: -0.427%.

For `Cc1cc(C)cc(OP(C)(=O)Nc2ccc(C)cc2C)c1` (stereo not given), the activity change, negative = inhibition is inactive: 1.6%.

Consider `Cc1ccc(C)c(NP(C)(=O)Oc2ccccc2)c1` (stereo not given), for which the activity change, negative = inhibition was inactive: 1.41%. Next, `CP(=O)(Nc1cccc(Br)c1)Oc1ccccc1` (stereo not given): inactive: 0.0286%; `Cc1cc(C)cc(OP(C)(=O)Nc2ccccn2)c1` (stereo not given): inactive: 3.89%; `CC1=NCCc2c1[nH]c1ccccc21.O=[N+]([O-])c1cc([N+](=O)[O-])c(O)c([N+](=O)[O-])c1`: inactive: -1.84%. In the case of `O=[N+]([O-])c1cc([N+](=O)[O-])c(Nc2nnnn2CCO)c([N+](=O)[O-])c1` it was inactive: -11.4%. In the case of `CC1=C2N=C(C=C3N=C(C(C)=C4[N-][C@@](C)([C@@H]5N=C1[C@](C)(CCC(=O)NC[C@@H](C)OP(=O)([O-])O[C@H]1[C@@H](O)[C@@H](n6cnc7cc(C)c(C)cc76)O[C@@H]1CO)[C@H]5CC(N)=O)[C@@](C)(CC(N)=O)[C@@H]4CCC(N)=O)[C@@](C)(CC(N)=O)[C@@H]3CCC(N)=O)C(C)(C)[C@@H]2CCC(N)=O.[C-]#N.[Co+3]` it was inactive: 2.54%; in that of `CN1CCCCC1COC(=O)C1(O)c2ccccc2CCc2ccccc21` (stereo not given), inactive: -1.28%; in that of `COc1ccccc1OP(C)(=O)Nc1c(C)cccc1C` (stereo not given), inactive: 1.08%. As to `CP(=O)(Nc1ccc(SC(F)(F)F)cc1)Oc1ccccc1` (stereo not given), the activity change, negative = inhibition was inactive: -0.222%. Next, `CCCOc1ccc(NP(C)(=O)Oc2ccc(Cl)cc2)cc1` (stereo not given): inactive: 4.42%; `O=[N+]([O-])c1cc([N+](=O)[O-])c(-n2nnc3ccccc32)c([N+](=O)[O-])c1`: inactive: 0.128%; `Cc1nc2ccc3ccccc3c2s1.O=[N+]([O-])c1cc([N+](=O)[O-])c(O)c([N+](=O)[O-])c1`: inactive: -1.75%. Next, `CP(=O)(Nc1ccc(SC(F)(F)F)cc1)Oc1ccc(Cl)cc1` (stereo not given): inactive: -1.07%; `Cc1cccc(C)c1OP(C)(=O)Nc1ccc(SC(F)(F)F)cc1` (stereo not given): inactive: 0.5%; `CP(=O)(Oc1ccccc1)OC(c1ccccc1)C(F)(F)F` (stereo not given): inactive: 11.4%. Next, `CCc1ccc(OP(C)(=O)N2CCN(c3ccc([N+](=O)[O-])cc3)CC2)cc1` (stereo not given): inactive: 2.96%; `CP(=O)(NC(=O)Nc1ccccc1)Oc1ccccc1` (stereo not given): inactive: 2.82%; `Cc1cc(C)cc(OP(C)(=O)Nc2ccc(SC(F)(F)F)cc2)c1` (stereo not given): inactive: 5.15%.

As to `CCOC(=O)c1ccc(NP(C)(=O)Oc2ccc(OC)cc2)cc1` (stereo not given), the activity change, negative = inhibition was inactive: 0.441%. In the case of `CCOP(C)(=S)SCC(=O)NC(C)C(=O)O` (stereo not given) it was inactive: 4.67%. Next, `CP(=S)(Nn1cnnc1)Oc1ccccc1` (stereo not given): inactive: 3.68%. In the case of `CP(=O)(Nc1ccccc1Br)Oc1ccccc1` (stereo not given) it was inactive: 1.27%.

With `COc1ccccc1OP(C)(=O)Nc1ccccc1` (stereo not given), the activity change, negative = inhibition is inactive: 0.0622%. In the case of `O=[N+]([O-])c1cc([N+](=O)[O-])c(Nc2cccnc2)c([N+](=O)[O-])c1` it was inactive: -0.843%; in that of `O=[N+]([O-])c1ccc2c(c1)C=Nc1ccccc1O2`, inactive: 0.881%; in that of `CC(C)(C)c1ccc(OP(C)(=O)Nc2ccc(SC(F)(F)F)cc2)cc1` (stereo not given), inactive: -1.67%. In the case of `Cc1cccc(C)c1OP(C)(N)=O` (stereo not given) it was inactive: 6.01%. Next, `COc1ccccc1OP(C)(=O)Nc1ccc(C)cc1` (stereo not given): inactive: -0.415%. Consider `Cc1ccc(NP(C)(=O)Oc2ccccc2)c(C)c1` (stereo not given), for which the activity change, negative = inhibition was inactive: -6.21%. Next, `CCOC(=O)c1ccc(NP(C)(=O)Oc2ccccc2)cc1` (stereo not given): inactive: -3.77%; `Cc1cc(C)cc(OP(C)(N)=O)c1` (stereo not given): inactive: 2.89%. In the case of `COc1ccccc1OP(C)(=O)Nc1cc(Cl)ccc1C` (stereo not given) it was inactive: 0.383%; in that of `COc1ccc(OP(C)(=O)Nc2cccc(F)c2)cc1` (stereo not given), inactive: 1.72%; in that of `CCN(CC)CCCOC(=O)C(O)(c1ccccc1)c1ccccc1`, inactive: -0.362%. Turning to `COc1ccccc1OP(C)(=O)Nc1ccc(Br)cc1` (stereo not given), the activity change, negative = inhibition was inactive: 1.13%.

Regarding `COc1ccc(OP(C)(=O)Nc2ccccn2)cc1` (stereo not given), the activity change, negative = inhibition was inactive: -1.9%. In the case of `CN(C)CCOC(=O)C(O)(c1ccccc1)C1CCCC1` (stereo not given) it was inactive: -1.17%.
